Earlier results, collected in publication PMC6686015.

Target: Trypsin (Bos taurus) (UniProt P00760)
Settings: cited from earlier work

BPTI (from UniProt P00974)
Ki: 0.06 nM
